Only a part is listed here, and it is no random draw. The source made the active and inactive calls.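 The calls were made as follows: active = activation factor of at least 2 for MT1-MMP transcription at 10 µM; inactive = the rest.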
Assay: MT1-MMP promoter reporter activation – cell-based, luciferase luminescence, primary screen (AID 750)
Details: HT1080 MT1-MMP promoter luciferase reporter, overnight, at 10 µM, stronger effect = higher value

SMILES | activation factor
CC1(CBr)Cn2c(nc3ccccc3c2=O)S1 (configuration not stated) | inactive: 1.1
O=P1(Nc2ccccn2)COc2ccccc2OC1 | inactive: 1.2
Clc1n[nH]nc1-c1nn[nH][15n]1 | inactive: 1.1
O=P1(Nc2ncccn2)COc2ccccc2OC1 | inactive: 1.3
Cc1ccc(OCC(=O)OC2CN3CCC2CC3)cc1 (configuration not stated) | inactive: 1.3
O=P1(Nc2ccc(Br)cn2)COc2ccccc2OC1 | inactive: 1.3
Cc1nn(-c2ccccc2)c2c1P(=O)(N1CCOCC1)N(C)C(c1ccccc1)=N2 (configuration not stated) | inactive: 1
CCOP1(=S)c2c(C)nn(CCC#N)c2N=C(c2ccc(F)cc2)N1C (configuration not stated) | inactive: 1.4
CCOP1(=S)c2c(C)nn(CCC#N)c2N=C(c2ccccc2F)N1C (configuration not stated) | inactive: 1
O=P(Nc1nccs1)(c1ccccc1)c1nc2ccccc2s1 (configuration not stated) | inactive: 1.2
Cc1cccc(OCC(=O)OC2CN3CCC2CC3)c1 (configuration not stated) | inactive: 1
O=C(OC1CN2CCC1CC2)C12CC3CC(CC(C3)C1)C2 (configuration not stated) | inactive: 1.2
ClCCSc1nnc(-c2cccnc2)o1 | inactive: 1.4
CCC(C)N(CC(C)C)C(=S)SC(NC(C)=O)C(Cl)(Cl)Cl (configuration not stated) | inactive: 1.2
COP1(=S)c2c(C)nn(CCC#N)c2N=C(c2ccc(F)cc2)N1C (configuration not stated) | inactive: 1.1
O=C(COc1ccccc1)OC1CN2CCC1CC2 (configuration not stated) | inactive: 1
CC1CCN(C(=O)Oc2c(Cl)cc(Cl)c3cccnc23)CC1 | inactive: 1.4
O=[N+]([O-])c1cccc2n[nH]nc12 | inactive: 1.3
CCc1nc2c(n1)c1c(non1O)c1c2no[n+]1[O-] | inactive: 0.1
CCOP(=O)(Nc1ccccc1)OCC | inactive: 1.1
Oc1ccccc1CNc1ccccn1 | inactive: 1.3
Cc1c2non([O-])c-2c(C)[n+](=O)[n+]1[O-] | inactive: 1.3
O=P1(Nc2nc3ccc(Cl)cc3s2)COc2ccccc2O1 (configuration not stated) | inactive: 1.3
COC(=O)c1cc2c(s1)N=C(c1ccccc1)N(C)P2(=O)N1CCOCC1 (configuration not stated) | inactive: 1.1
O=C(OC1CN2CCC1CC2)c1cccc(Cl)c1 (configuration not stated) | inactive: 0.9
O=P(Nc1nccs1)(c1ccccc1)c1ccccc1 | inactive: 1.1
c1nnnn1CCn1cnnn1 | inactive: 1.1

Reference: PubChem BioAssay AID750 (Sanford-Burnham Center for Chemical Genomics, 2007)
